Measured values reported in PubChem BioAssay AID2166 (The Scripps Research Institute Molecular Screening Center, 2009).
The list shows a part of the results, in another mix than the full data. Active and inactive are the calls of the source.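 The calls were made as follows: active = inhibition above a cutoff equal to the mean inhibition of all tested compounds plus 3 SD (cut at about 30% in these data); inactive = the rest.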

Chains of the proteins cited; added tags and fusions are not shown.
UniProt Q07817, whole entry, looked up: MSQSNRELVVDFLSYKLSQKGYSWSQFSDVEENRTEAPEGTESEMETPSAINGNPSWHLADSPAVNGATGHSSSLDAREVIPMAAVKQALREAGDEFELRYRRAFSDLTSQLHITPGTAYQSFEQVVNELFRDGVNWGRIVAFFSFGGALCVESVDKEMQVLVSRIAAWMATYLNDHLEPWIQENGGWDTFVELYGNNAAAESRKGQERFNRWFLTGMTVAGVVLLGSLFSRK

target: Bcl-2-like protein 1 (Homo sapiens) (UniProt Q07817); test: Bcl-xL inhibitors blocking Bim BH3 binding, confirmation, counter-screen for MCL1 inhibitor project, biochemical, fluorescence polarization (AID 2166); settings: GST-Bcl-xL / FITC-Bim BH3 peptide FP binding; at 10.9 µM; active compounds read high

Question: With C[N+]1=C2C=CC=CC=C2SC12C([N+](=O)[O-])=CC([N+](=O)[O-])=C[C-]2[N+](=O)[O-] (stereo not given) as the compound, how does the inhibition read?
Answer: The inhibition was inactive: 22.5%.

Question: For CN(C(=O)Cc1ccc(Cl)c(Cl)c1)[C@H]1CCCC[C@@H]1N1CCCC1, which inhibition is on record?
Answer: Its inhibition is inactive: 30.1%.

Question: Which inhibition does the source give for O=C(OC1CN2CCC1CC2)c1ccc(Cl)cc1 (stereo not given) here?
Answer: The inhibition was inactive: 0.75%.

Question: With Nc1cccc2c([As](=O)(O)O)cccc12 as the compound, how does the inhibition read?
Answer: Its inhibition is active: 53.6%.

Question: Which inhibition does the source give for CS(=O)(=O)c1cc([N+](=O)[O-])c2no[n+]([O-])c2c1 here?
Answer: Its inhibition is active: 40.9%.
